The chains behind the UniProt entries cited, without tags or fusion partners. Where a name states a change or a piece, a line headed by the entry shows the natural chain unless it says otherwise. A line that says so, or that is headed by a name, gives the form on record, which may keep a tag or linker.
UniProt O00329: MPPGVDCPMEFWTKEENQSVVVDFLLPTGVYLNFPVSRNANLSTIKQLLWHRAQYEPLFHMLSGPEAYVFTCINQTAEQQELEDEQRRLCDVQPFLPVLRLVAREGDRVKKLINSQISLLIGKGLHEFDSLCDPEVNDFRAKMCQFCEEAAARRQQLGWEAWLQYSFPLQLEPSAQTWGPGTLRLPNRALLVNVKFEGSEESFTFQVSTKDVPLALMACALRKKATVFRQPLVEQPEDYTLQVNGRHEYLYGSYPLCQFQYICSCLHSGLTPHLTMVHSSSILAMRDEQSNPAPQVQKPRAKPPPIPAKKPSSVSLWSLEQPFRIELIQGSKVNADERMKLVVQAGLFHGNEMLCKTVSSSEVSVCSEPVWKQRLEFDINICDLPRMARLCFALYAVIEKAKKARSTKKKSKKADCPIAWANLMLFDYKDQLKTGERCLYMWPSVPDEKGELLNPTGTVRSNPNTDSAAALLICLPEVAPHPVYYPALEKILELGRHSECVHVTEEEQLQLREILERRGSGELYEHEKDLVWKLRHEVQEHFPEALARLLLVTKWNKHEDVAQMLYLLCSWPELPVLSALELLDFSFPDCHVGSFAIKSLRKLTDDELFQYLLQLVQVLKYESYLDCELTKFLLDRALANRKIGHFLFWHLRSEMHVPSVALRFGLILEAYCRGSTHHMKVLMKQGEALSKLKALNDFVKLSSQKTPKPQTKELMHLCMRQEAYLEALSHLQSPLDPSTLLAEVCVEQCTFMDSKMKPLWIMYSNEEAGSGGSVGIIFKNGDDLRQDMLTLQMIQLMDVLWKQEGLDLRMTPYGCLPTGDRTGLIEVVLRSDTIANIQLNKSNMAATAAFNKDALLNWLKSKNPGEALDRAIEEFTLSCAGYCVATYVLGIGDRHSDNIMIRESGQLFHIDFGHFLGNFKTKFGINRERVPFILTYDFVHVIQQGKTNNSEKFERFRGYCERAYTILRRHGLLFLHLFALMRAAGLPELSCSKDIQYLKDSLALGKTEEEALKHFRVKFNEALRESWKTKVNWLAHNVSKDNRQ
UniProt P42336, other isoform, or with tags, fused parts or gaps: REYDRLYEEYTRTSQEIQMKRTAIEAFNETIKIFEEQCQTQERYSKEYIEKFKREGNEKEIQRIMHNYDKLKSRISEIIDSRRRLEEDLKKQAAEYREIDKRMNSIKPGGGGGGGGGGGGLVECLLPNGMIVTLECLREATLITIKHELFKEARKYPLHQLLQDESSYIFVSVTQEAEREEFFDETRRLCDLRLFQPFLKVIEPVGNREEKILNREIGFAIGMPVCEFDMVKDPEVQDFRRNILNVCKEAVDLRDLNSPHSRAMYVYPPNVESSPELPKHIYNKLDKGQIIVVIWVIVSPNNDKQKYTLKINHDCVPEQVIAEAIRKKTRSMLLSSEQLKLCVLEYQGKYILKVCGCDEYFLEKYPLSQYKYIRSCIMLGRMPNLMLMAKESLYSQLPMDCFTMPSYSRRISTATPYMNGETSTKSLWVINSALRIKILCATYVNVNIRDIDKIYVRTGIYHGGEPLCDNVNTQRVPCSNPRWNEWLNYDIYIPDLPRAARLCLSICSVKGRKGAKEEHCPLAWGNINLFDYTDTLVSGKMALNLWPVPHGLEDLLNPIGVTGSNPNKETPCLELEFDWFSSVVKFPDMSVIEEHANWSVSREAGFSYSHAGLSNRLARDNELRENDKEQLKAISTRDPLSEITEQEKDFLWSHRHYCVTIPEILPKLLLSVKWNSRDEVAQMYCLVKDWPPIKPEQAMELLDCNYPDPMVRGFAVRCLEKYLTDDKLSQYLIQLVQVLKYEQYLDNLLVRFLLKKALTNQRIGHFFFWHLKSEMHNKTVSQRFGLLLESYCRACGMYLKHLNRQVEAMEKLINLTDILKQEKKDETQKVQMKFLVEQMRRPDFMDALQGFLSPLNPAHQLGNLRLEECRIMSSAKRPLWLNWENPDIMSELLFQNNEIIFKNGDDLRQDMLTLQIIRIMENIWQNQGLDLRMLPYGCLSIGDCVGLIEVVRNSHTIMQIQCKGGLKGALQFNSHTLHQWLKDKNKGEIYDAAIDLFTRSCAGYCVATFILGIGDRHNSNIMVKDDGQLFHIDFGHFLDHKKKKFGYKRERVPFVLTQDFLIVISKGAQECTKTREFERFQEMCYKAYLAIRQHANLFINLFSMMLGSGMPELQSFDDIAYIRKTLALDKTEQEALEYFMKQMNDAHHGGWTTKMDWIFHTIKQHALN

What follows are compounds tested against human phosphoinositide-3 kinase (PI3K) delta (Homo sapiens (Human), UniProt O00329) (assay: PI3K-mediated Akt 1/2 (S473) phosphorylation in Rat-1 cells (AlphaScreen SureFire)). Details: Rat-1 cells overexpressing myristoylated human PI3K delta, p-Akt (Ser473); read-out: Cell PI3Kδ/ IC50 [umol l − 1].
Type: cell-based
Description: Rat-1 cells stably overexpressing a myristoylated form of the catalytic subunit of human phosphoinositide-3 kinase (PI3K) alpha, beta or delta were plated in 384-well plates at a density of 7500 (PI3K alpha), 6200 (PI3K beta), or 4000 (PI3K delta) cells in 30 ul complete growth medium (Dulbecco's modified Eagle's medium (DMEM high glucose) supplemented with 10% (v/v) fetal bovine serum, 1% (v/v) MEM non essential amino acids, 10 mM HEPES, 2 mM L-glutamine, 10 μg/mL puromycin and 1% (v/v) Penicillin/Streptomycin) and were incubated at […]/5% CO2/95% humidity for 24 h. Compounds were diluted in 384-well compound plates to obtain 8-point serial dilutions for 40 test compounds in 90% DMSO, as well as 4 reference compounds plus 16 high controls and 16 low (inhibited) controls. Predilution plates were prepared by dispensing pipetting 250 nl of compound solutions into 384-well polypropylen plates using a Hummingwell nanoliter dispensor. Compounds were prediluted by the addition of 49.75 ul complete growth medium. 10 ul of prediluted compound solution were transferred to the cell plate using a 384-well pipettor, resulting in a final DMSO concentration of 0.11%. […]
For detection of p-AKT (Ser473), the SureFire® p-Akt 1/2 (Ser473) Assay Kit (PerkinElmer, U.S.A) was used. […] The plate was read on an AlphaScreen® compatible plate reader, using standard AlphaScreen® settings.
CCC(=O)N1CC[C@H](Nc2ncnc3c2CN(c2cnc(OC)c(C(F)(F)F)c2)CC3)C1 [Example 67, 1-{(S)-3-[6-(6-Methoxy-5-trifluoromethyl-pyridin-3-yl)-5,6,7,8-tetrahydro-pyrido[4,3-d]pyrimidin-4-ylamino]-pyrrolidin-1-yl}-propan-1-one] was tested, and the IC50 was 0.047 µM.

The compounds below were run against PI3K alpha (Homo sapiens (Human), UniProt P42336) (assay: Enzymatic PI3K alpha isoform inhibition (lipid kinase, Kinase-Glo luminescence)). Details: enzymatic assay.
Type: biochemical
For COc1ncc(N2CCc3ncnc(O[C@H]4CCN(C(=O)N5CCN(C)CC5)C4)c3C2)cc1C(F)(F)F [Example 85, {(S)-3-[6-(6-methoxy-5-trifluoromethyl-pyridin-3-yl)-5,6,7,8-tetrahydro-pyrido[4,3-d]pyrimidin-4-yloxy]-pyrrolidin-1-yl}-(4-methyl-piperazin-1-yl)-methanone], the IC50 was 0.569 µM.
In the case of COc1ncc(N2CCc3ncnc(N[C@H]4CCN(C(=O)[C@H]5CC[C@@H](OC)CC5)C4)c3C2)cc1C(F)(F)F (single isomer, unassigned) [Example 73], the IC50 is reported as 0.054 µM.
COc1ncc(N2CCc3ncnc(N[C@H]4CCN(C(=O)C5CCOCC5)C4)c3C2)cc1C [Example 83, {(S)-3-[6-(6-Methoxy-5-methyl-pyridin-3-yl)-5,6,7,8-tetrahydro-pyrido[4,3-d]pyrimidin-4-ylamino]-pyrrolidin-1-yl}-(tetrahydro-pyran-4-yl)-methanone] was tested, and the IC50 was 0.432 µM.
For COC(=O)N1CC[C@H](Oc2ncnc3c2CN(c2cnc(OC)c(C#N)c2)CC3)C1 [Example 90, (S)-3-[6-(5-cyano-6-methoxy-pyridin-3-yl)-5,6,7,8-tetrahydro-pyrido[4,3-d]pyrimidin-4-yloxy]-pyrrolidine-1-carboxylic acid methyl ester], the IC50 was 1.99 µM.
COc1ncc(N2CCc3ncnc(N[C@H]4CCN(C(=O)[C@H]5CC[C@H](OC)CC5)C4)c3C2)cc1C(F)(F)F (single isomer, unassigned) [Example 74] was tested, and the IC50 was 0.113 µM.

The compounds below were run against PI3K delta (Homo sapiens (Human), UniProt O00329) (assay: Enzymatic PI3K delta isoform inhibition (lipid kinase, Kinase-Glo luminescence)). Details: enzymatic assay.
Type: biochemical
COc1ncc(N2CCc3ncnc(N[C@H]4CCN(C(=O)C5CCOCC5)C4)c3C2)cc1C [Example 83, {(S)-3-[6-(6-Methoxy-5-methyl-pyridin-3-yl)-5,6,7,8-tetrahydro-pyrido[4,3-d]pyrimidin-4-ylamino]-pyrrolidin-1-yl}-(tetrahydro-pyran-4-yl)-methanone] gave an IC50 of 0.017 µM.
With COc1ncc(N2CCc3ncnc(O[C@H]4CCN(C(=O)c5cnco5)C4)c3C2)cc1C(F)(F)F [Example 94, {(S)-3-[6-(6-Methoxy-5-trifluoromethyl-pyridin-3-yl)-5,6,7,8-tetrahydro-pyrido[4,3-d]pyrimidin-4-yloxy]-pyrrolidin-1-yl}-oxazol-5-yl-methanone] the IC50 was 0.021 µM.
COc1ncc(N2CCc3ncnc(O[C@H]4CCN(C(=O)C5CCOCC5)C4)c3C2)cc1C [Example 1, {(S)-3-[6-(6-Methoxy-5-methyl-pyridin-3-yl)-5,6,7,8-tetrahydro-pyrido[4,3-d]pyrimidin-4-yloxy]-pyrrolidin-1-yl}-(tetrahydro-pyran-4-yl)-methanone] showed an IC50 of 0.015 µM.
